Literature values, collected in patent US9044437B2, “Method for treating alzheimer's disease using pharmacological chaperones to increase the activity of gangliosidases” (Amicus Therapeutics, Inc., priority 2009, dated 2015).

Target: T1, Neu 4 (Homo sapiens, UniProt Q8WWR8)
T1 sequence (Q8WWR8 1-484): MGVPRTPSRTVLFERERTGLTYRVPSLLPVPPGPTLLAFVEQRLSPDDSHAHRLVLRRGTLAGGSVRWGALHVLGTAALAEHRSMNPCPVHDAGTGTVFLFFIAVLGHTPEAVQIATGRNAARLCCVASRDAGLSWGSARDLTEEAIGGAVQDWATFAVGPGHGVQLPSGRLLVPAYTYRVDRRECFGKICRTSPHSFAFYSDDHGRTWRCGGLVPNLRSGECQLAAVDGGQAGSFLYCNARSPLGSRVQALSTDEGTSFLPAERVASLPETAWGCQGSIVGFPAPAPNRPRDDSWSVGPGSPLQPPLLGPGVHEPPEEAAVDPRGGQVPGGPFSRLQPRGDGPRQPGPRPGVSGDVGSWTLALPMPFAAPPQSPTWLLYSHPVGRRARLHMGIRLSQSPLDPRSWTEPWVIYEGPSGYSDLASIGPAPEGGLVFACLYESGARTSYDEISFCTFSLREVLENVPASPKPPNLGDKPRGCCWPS
Settings: marked *: Values reported in the literature; cited from earlier work

CC(=O)N[C@H]1[C@H]([C@H](O)[C@H](O)CO)OC(C(=O)O)=C[C@@H]1O [DANA, 2-deoxy-2,3-dehydro-N-acetylneuraminic acid]
IC50: 74 µM
